Several values for one entry are separate records, joined by “and”; a condition that tells them apart may be missing. Identical values can stand only once. The list shows a part of the results, in another mix than the full data. Results filed as inconclusive are left out. Activity calls are given as the source filed them. Calls come from the whole dose curve; as a rule, active = well fitted curve in the direction sought with a large enough effect in the repeat runs; inconclusive = weak or mixed curves; inactive = no such curve, though single readings can be large; an effect the other way counts as inactive or inconclusive.

Amino acid sequences for entries named in this document (tags omitted).
UniProt P08659, whole entry, looked up: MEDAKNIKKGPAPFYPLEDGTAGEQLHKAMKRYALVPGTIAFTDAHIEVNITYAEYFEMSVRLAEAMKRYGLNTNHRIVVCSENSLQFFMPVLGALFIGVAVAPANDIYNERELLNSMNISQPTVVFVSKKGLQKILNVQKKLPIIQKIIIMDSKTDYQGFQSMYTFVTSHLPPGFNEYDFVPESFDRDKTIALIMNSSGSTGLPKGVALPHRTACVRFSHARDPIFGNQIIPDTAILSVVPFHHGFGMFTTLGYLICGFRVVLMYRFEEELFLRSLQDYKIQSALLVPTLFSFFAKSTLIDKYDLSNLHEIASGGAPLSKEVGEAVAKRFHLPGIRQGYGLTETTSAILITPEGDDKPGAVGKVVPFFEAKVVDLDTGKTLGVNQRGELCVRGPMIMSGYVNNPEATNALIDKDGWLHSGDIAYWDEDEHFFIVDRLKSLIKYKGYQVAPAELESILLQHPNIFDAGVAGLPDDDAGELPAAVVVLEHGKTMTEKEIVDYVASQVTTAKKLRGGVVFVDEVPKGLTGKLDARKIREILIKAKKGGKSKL

The values that follow come from PubChem BioAssay (Tox21).

Experiment [1] in a line: qHTS assay to identify small molecule antagonists of the estrogen related receptor (ERR) signaling pathway from Tox21 library - cell viability counter screen (AID 1224834). Note: nearly all actives have a fitted effect of over 30% in size. Note: potency is the fitted concentration of half-maximal effect. The method in brief: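 ERR cells, 2,000/well; 6 h settle at 37 C/5% CO2; pin-tool compound transfer in DMSO; 17.5 h at 37 C; CellTiter-Fluor, 30 min; fluorescence intensity.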
For experiment [2], the target named is Luciferin 4-monooxygenase (Photinus pyralis) (UniProt P08659). Kind of experiment: qHTS assay to identify small molecule inhibitors of firefly luciferase (AID 1224835). Note: nearly all actives have a fitted effect of over 25% in size. Note: potency is the fitted concentration of half-maximal effect. The method in brief:
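Inhibition of purified Photinus luciferase is measured by luminescence. Substrate levels (D-luciferin, ATP) sit at their KM values. Each compound is tested in a concentration series.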
(Quantitative high-throughput screening tests each substance at several concentrations.)

Experiment [3] is described as follows: qHTS assay to identify small molecule agonists of the constitutive androstane receptor (CAR) signaling pathway - cell viability counter screen (AID 1224836). Note: nearly all actives have a fitted effect of over 45% in size. Note: potency is the fitted concentration of half-maximal effect. The method in brief: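 HepG2 cells stably carrying hCAR and a CYP2B6-2.2kb reporter were plated 4 h, then given compounds at 15 concentrations plus PK11195 (final 0.75 uM). After 23 h at 37 C, viability was read by CellTiter-Fluor fluorescence.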

The nature of experiment [4]: qHTS assay to identify small molecule antagonists of the constitutive androstane receptor (CAR) signaling pathway - cell viability counter screen (AID 1224837). Note: nearly all actives have a fitted effect of over 45% in size. Note: potency is the fitted concentration of half-maximal effect. The method in brief: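 Viability was measured with CellTiter-Fluor in a HepG2 line carrying stably transfected hCAR and a CYP2B6-2.2kb construct. Cells were exposed for 23 hr at 37 C to 15 compound concentrations with 50 nM CITCO as agonist.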

Experiment [5] is described as follows: qHTS assay to identify small molecule agonists of the retinoic acid receptor (RAR) signaling pathway (AID 1159553). Particulars: C3RL4 RARE luciferase reporter, agonist, 6 h; at 73.3 µM (top of the series) unless noted. Put shortly:
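Seed C3RL4 reporter cells at 1,000 per well and incubate overnight at 37 C. Add compounds in DMSO, incubate 6 hr. Add luciferase reagent, wait 30 min at room temperature, read luminescence.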

Experiment [6] can be described thus: qHTS assay to identify small molecule antagonists of the estrogen related receptor (ERR) signaling pathway - cell viability counter screen (AID 1224818). Note: potency is the fitted concentration of half-maximal effect. The method in brief: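 ERR cells, 2,000/well; 6 h settle at 37 C/5% CO2; compound pin transfer (DMSO); 17.5 h at 37 C; CellTiter-Fluor, 30 min, fluorescence read.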
Experiment [7] can be described thus: qHTS assay to identify small molecule antagonists of the estrogen related receptor signaling pathway with the pleiotropic PPARgamma coactivator (PGC) cell viability counter screen (AID 1224822; note: potency is the fitted concentration of half-maximal effect). Put shortly: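 Multiplexed viability counter screen run in PGC/ERR cells treated with compounds for 17.5 h at 37 C; live-cell protease signal measured by CellTiter-Fluor fluorescence.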

Experiment [8] can be described thus: qHTS assay to identify small molecule antagonists of the estrogen related receptor (ERR) signaling pathway (AID 1224819; note: nearly all actives have a fitted effect of over 50% in size; note: potency is the fitted concentration of half-maximal effect;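 for activity change, negative = inhibition: luminescence from an ERR-driven luciferase reporter measured with One-Glo reagent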). Put shortly:
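qHTS in ERR cells, 2,000/well, 1536 format. Cpd (DMSO) added after 6 h settle, 18 h 37 C. One-Glo luminescence, 30 min RT.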

Experiment [9] can be described thus: qHTS assay to identify small molecule agonists of the estrogen related receptor (ERR) signaling pathway (AID 1224820). Particulars: ERR reporter cell line, luciferase agonist mode; at 46.1 µM (top of the series) unless noted. An excerpt: National Center for Advancing Translational Sciences [NCATS]
NIH Chemical Genomics Center [NCGC]
U.S. Environmental Protection Agency [EPA]
National Institutes of Environmental Health Sciences [NIEHS]
National Toxicology Program [NTP]
Estrogen related receptors (ERRs), the first orphan nuclear receptors discovered, play an important role in the control of cellular energy metabolism. ERRs are required for high-energy production in response to the environmental challenges. ERR-alpha was also identified as an adverse marker for breast cancer progression; ERR-alpha-positive tumors have a poor prognosis. To screen and to identify environmental compounds that perturb the ERR signaling pathways could provide valuable information for potential therapeutic or preventive measures in the treatment of metabolic disease. For identifying ERR agonists, ERR cell line (provided by NTP) has been used to screen LOPAC library.
The ERR cells were dispensed at 2,000 cells/5 ul/well in 1536-well white plates using a Multidrop dispenser. After the assay plates were incubated at a 37 C/5% CO2 incubator for 6 hours, 23 nL of compounds dissolved in DMSO, positive and negative controls or DMSO only was transferred to the assay plate by a pin tool. The plates were incubated at 37 C for 18 hours. 4 ul/well of One-Glo reagent was added into the assay plates using a Flying Reagent Dispenser. After 30 min incubation at room temperature, the luminescence intensity in the plates was measured using a ViewLux plate reader.

Experiment [10] in a line: qHTS assay to identify small molecule agonists of the estrogen related receptor signaling pathway with the pleiotropic PPARgamma coactivator (PGC) (AID 1224823). Particulars: ERR/PGC reporter cell line, luciferase agonist mode; at 92.2 µM (top of the series). Put shortly: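 Luminescence from One-Glo reagent (30 min, room temperature) was read after 18 h compound treatment at 37 C of PGC/ERR cells plated 6 h beforehand; compounds delivered in DMSO by pin tool.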
% is set by controls: 0 for no effect and ±100 for the full control effect.

For the compound `CCCCO[P+](=O)OCCCC`, the Potency result in [1], in experiment [2], in [3] and in experiment [4] was “inactive” each time.

With `CCOP(=S)(CC)Sc1ccccc1` (stereo not given), the activation in [5] is inactive: -2.18%. Further, the Potency result in [1], in [2], in [3] and in [4] was “inactive” throughout.

With `CN(C(=O)Cc1ccc(Cl)c(Cl)c1)[C@@H]1CC[C@]2(CCCO2)C[C@H]1N1CCCC1`, the Potency result in experiment [6] and in [7] was “inactive” throughout.

`O=[p+]1oc2ccccc2c2ccccc21` (stereo not given): the Potency entry in experiment [1], in experiment [2], in experiment [3] and in experiment [4] was “inactive” throughout.

As to `COC(=O)Cl`, in [5], the activation was inactive: 0.506%. Also, the Potency result in experiment [1], in experiment [2], in [3] and in [4] was “inactive” throughout.

With `O=[N+]([O-])c1ccc([N+](=O)[O-])cc1`, in experiment [1], the Potency is active: 27.3 µM. In experiment [2], the Potency entry is “inactive”.

On to `O=[As]c1ccccc1` (stereo not given), for which the Potency is active: 31.7 µM in [2], active: 0.864 µM in experiment [3] and active: 0.864 µM in experiment [4].

In the case of `CCOC(=O)Cl`, in experiment [5], the activation was inactive: -1.8%. The Potency entry in [1], in experiment [2], in [3] and in experiment [4] was “inactive” each time.

As to `CCCCOP(OCCCC)OCCCC`, the Potency entry in [1], in experiment [2], in experiment [3] and in experiment [4] was “inactive” each time.

Consider `CCC(C)(OOC(C)(C)C)OOC(C)(C)C`, for which the viability change, negative = cytotoxic is inactive: -3.82% [at 19 µM] in experiment [1] and inactive: 0.918% [at 19 µM] in experiment [3]. In addition, the activity change, negative = inhibition in experiment [2] was inactive: 0.643% [at 23.6 µM]. For the same compound, the activity change, negative = cytotoxicity in experiment [4] was inactive: -3.11% [at 19 µM].

In the case of `O=P(Cl)(Oc1ccccc1)Oc1ccccc1`, the Potency entry in experiment [1], in [2], in experiment [3] and in experiment [4] was “inactive” in each case.

As for `CC(C)OP(=S)(OC(C)C)SCCNS(=O)(=O)c1ccccc1`, the Potency entry in [3] and in experiment [4] was “inactive” in each case.

On to `CN(C(=O)Cc1ccccc1)[C@H]1CC[C@@]2(CCCO2)C[C@@H]1N1CCCC1`, for which the activation in experiment [5] is inactive: -1.09%. Also, the Potency result in experiment [2] and in experiment [3] was “inactive” throughout.

Consider `CN(C(=O)Cc1ccccc1)[C@@H]1CC[C@]2(CCCO2)C[C@H]1N1CCCC1`, for which the Potency entry in experiment [6] and in experiment [7] was “inactive” throughout.

As for `CN(C(=O)Cc1cccc2occc12)[C@H]1CC[C@@]2(CCCO2)C[C@@H]1N1CCCC1`, the activation in experiment [5] was inactive: 1.64%. Also, the Potency entry in experiment [1], in experiment [2], in [3] and in experiment [4] was “inactive” each time.

On to `O=[N+]([O-])c1ccc(S(=O)(=O)O)c([N+](=O)[O-])c1`, for which the Potency result in experiment [1], in [3] and in experiment [4] was “inactive” each time.

Take `O=C(Cl)OCCOC(=O)Cl`: the Potency entry in experiment [1], in experiment [3] and in experiment [4] was “inactive” each time.

For `Cc1cc([N+](=O)[O-])cc([N+](=O)[O-])c1O`, the activation is inactive: -15.6% in experiment [5], inactive: -62.7% [at 92.2 µM] in [9] and inactive: -16.8% in experiment [10]. The Potency is active: 22.5 µM in experiment [6], active: 16 µM in [8] and active: 15.4 µM in experiment [7]. The Potency entry in [2] was “inactive”.

Regarding `CN(N=O)C(=N)N[N+](=O)[O-]`, the activation in [5] is inactive: 4.24%. Also, the Potency result in experiment [1] and in [3] was “inactive” each time.

For `CN(C(=O)Cc1ccc(Cl)c(Cl)c1)[C@H]1CCCC[C@@H]1N1CCCC1`, the Potency entry in [6], in experiment [8] and in experiment [7] was “inactive” each time. In addition, the activation in [9] was inactive: 14.7% and inactive: 14.2%.

Regarding `CN(C(=O)Cc1ccc(Cl)c(Cl)c1)[C@@H]1CCCC[C@@H]1N1CCCC1`, the Potency result in experiment [6], in experiment [8] and in experiment [7] was “inactive” in each case. For the same compound, the activation in [9] was inactive: 4.07%.

As for `CN(C(=O)Cc1ccc(Cl)c(Cl)c1)[C@H]1CC[C@@]2(CCCO2)C[C@@H]1N1CCCC1`, the activation in experiment [5] was inactive: -4.09%. Moreover, the Potency entry in experiment [1], in experiment [2], in experiment [3] and in [4] was “inactive” throughout.

Turning to `O=[P+](Oc1ccccc1)Oc1ccccc1`, the activation in experiment [5] is inactive: -0.713%. Moreover, the Potency entry in [1], in [2] and in [3] was “inactive” each time.

With `CCCCCCCCCCCCCC[P+](CCCCCC)(CCCCCC)CCCCCC`, the Potency result in experiment [2] was “inactive”.

Turning to `COP(=S)(Cl)OC`, the activation in [5] was inactive: -2.66% [at 94.8 µM]. The Potency entry in [1], in experiment [3] and in experiment [4] was “inactive” throughout.

Turning to `CCNC(C)Cc1ccc2c(c1)OCO2` (stereo not given), the Potency result in [1], in experiment [2], in experiment [3] and in experiment [4] was “inactive” each time.

For the compound `O=P(Cl)(Cl)c1ccccc1`, the Potency result in [1], in [2], in experiment [3] and in experiment [4] was “inactive” each time.

Regarding `ClP(Cl)c1ccccc1`, the activation in experiment [5] is inactive: -0.498%. Also, the Potency entry in [1], in experiment [2], in [3] and in experiment [4] was “inactive” throughout.

For `Cc1cc([N+](=O)[O-])c(O)c([N+](=O)[O-])c1`, the Potency in [1] is active: 55 µM. Moreover, the Potency result in experiment [2] is “inactive”.

Consider `O=C(Cl)Oc1ccccc1`, for which the Potency entry in experiment [1], in experiment [2], in experiment [3] and in experiment [4] was “inactive” in each case.

Regarding `NC(=O)Nc1ccc([As](=O)(O)O)cc1`, the activation in experiment [5] was inactive: 1.07% and inactive: -0.0498%. Besides, the Potency entry in [1], in experiment [3] and in [4] was “inactive” throughout.

In the case of `CC(C)CCCCCCCOP(OCCCCCCCC(C)C)Oc1ccccc1`, the activation in [5] was inactive: 13.7%. Moreover, the Potency result in experiment [1], in [2], in experiment [3] and in experiment [4] was “inactive” throughout.

For the compound `CCCCC(CC)CO[P+](=O)OCC(CC)CCCC` (stereo not given), the activation in experiment [5] is inactive: -0.308%. The Potency result in [1], in experiment [2], in [3] and in experiment [4] was “inactive” throughout.
